Experiments:
[1] = test system: HCT116 human colon carcinoma xenograft; assay: HCT116 xenograft model in nude mice (hypoxic tumor); format: in vivo; conditions: comparison of HCT116 and 786O xenografts in nude mice
Method: Human tumor cell lines HCT116 (ATCC #CRL-247; Schroy P C, et al. Cancer 76: 201-209, 1995) and 786-O (ATCC #CRL-1932; Williams R D, et al. In Vitro 12: 623-627, 1976), were obtained from the American Type Culture Collection (Manassus, Va., USA) were cultured using routine methods until a sufficient number of cells were obtained for implantation. Studies were conducted on animals between 7 and 12 weeks of age at implantation. To implant HCT116 tumor cells into nude mice, the cells were trypsinized, washed in PBS and resuspended at a concentration of 75×10^6 cells/ml in McCoy's modified medium with 50% of BD Matrigel® Basement Membrane Matrix (BD Biosciences®, Bedford, Mass., USA). To implant 786-O tumor cells into nude mice, the cells were trypsinized as above, washed in PBS and resuspended at a concentration of 75×10^6 cells/ml in RPMI 1640 medium with 50% of BD Matrigel® Basement Membrane Matrix. […] Tumor volumes (V) were calculated by caliper measurement of the width (W), length (L) and thickness (T) of tumors using the following formula: V=0.5236×(L×W×T). […]
As above, HCT116 and 786-O cells were cultured and implanted into nude mice using the methods in the previous example. Tumor growth was measured using calipers. […]
Tumor volume was monitored throughout the course of the study, until up to about 40 days from the date of tumor implantation. […]

[2] = test system: EGFR-expressing metastatic CRC; conditions: ERFLOX combination; cited from earlier work
[3] = test system: EGFR-expressing metastatic CRC; conditions: cited from earlier work

cetuximab: antibody that binds specifically to the epidermal growth factor receptor (EGFR, HER1, c-ErbB-1)
efficacy at slowing tumor growth in HCT116 (high hypoxia) versus 786O (low hypoxia) tumors [1]: not found to work better in the tumors with a higher level of hypoxia | major grade 3/4 toxicities [2]: diarrhea, neutropenia and acne-like rash | safety profile [2]: acceptable safety profile | grade 3/4 asthenia ([3]; cetuximab with FOLFIRI): 7% | grade 3/4 diarrhea ([3]; cetuximab with FOLFIRI): 14% | grade 3/4 skin reactions ([3]; cetuximab with FOLFIRI): 7% | effect on typical grade 3/4 toxicities of FOLFIRI ([3]; in vivo): does not appear to aggravate the typical grade 3/4 toxicities of FOLFIRI
